Source: article PMC6470842 (Pharmaceutics, 2019)

Experiments:
[1] = Tissue distribution of PA and NAPA at steady state (Kp,ss); conditions: rats, 60 min
[2] = PBPK model input parameters for PA and NAPA; conditions: Kp,ss corrected with ER

CCN(CC)CCNC(=O)c1ccc(N)cc1 [PA, procainamide]
Kp,ss Brain ([1]; PA HCl infusion 2.5 mg/kg/hr, control (without cimetidine)): 0.200 ± 0.0208 | Kp,ss Brain ([1]; PA HCl infusion, co-treatment with cimetidine 100 mg/kg iv): 0.246 ± 0.0584 | Kp,ss Heart ([1]; PA HCl infusion, control): 3.45 ± 1.19 | Kp,ss Kidney ([1]; PA HCl infusion, control): 5.68 ± 2.01 | Kp,ss Liver ([1]; PA HCl infusion, control): 2.86 ± 2.11 | Kp,ss Lung ([1]; PA HCl infusion, control): 2.52 ± 1.10 | Kp,ss Spleen ([1]; PA HCl infusion, control): 1.34 ± 0.424 | Kp Kidney [2]: 8.31 | Kp Liver [2]: 11.7
